Laboratory results taken from PubChem BioAssay AID2445 (The Scripps Research Institute Molecular Screening Center, 2010).
The list shows a part of the results, in another mix than the full data. Some tests of the compounds listed are not included; inactive here does not mean inactive elsewhere. Activity calls are given as the source filed them.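 How the source made its calls: active means activation above that plate's cutoff, the mean activation of tested compounds plus 3 SD (cut at about 6.6% in these data, passing the limit was not always enough); inactive means the rest.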

By UniProt entry, the sequences of proteins in these tests, tags left out.
UniProt P30559, whole entry: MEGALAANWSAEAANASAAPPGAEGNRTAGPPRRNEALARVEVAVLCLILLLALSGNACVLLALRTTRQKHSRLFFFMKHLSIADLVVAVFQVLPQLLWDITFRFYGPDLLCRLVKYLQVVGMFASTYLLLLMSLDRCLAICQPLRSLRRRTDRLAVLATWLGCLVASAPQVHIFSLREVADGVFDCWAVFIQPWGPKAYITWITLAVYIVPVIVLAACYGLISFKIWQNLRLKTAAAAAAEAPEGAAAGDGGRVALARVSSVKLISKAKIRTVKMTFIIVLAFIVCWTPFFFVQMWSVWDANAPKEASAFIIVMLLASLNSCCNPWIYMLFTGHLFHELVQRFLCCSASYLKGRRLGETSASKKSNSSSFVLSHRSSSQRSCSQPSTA

The molecules below were run against Oxytocin receptor (Homo sapiens) (UniProt P30559) (assay: enhancers of oxytocin-evoked OXTR calcium signal – fluorescence, CHO-OTR cells, Fluo-8 calcium, primary screen (AID 2445;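 further: 100% uses oxytocin at 75 nM as the full agonist control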)). Details: Fluo-8 calcium fluorescence, potentiator mode, at 3 µM, hits give high values, 0% = oxytocin EC15, 100% = EC100.

Row | SMILES | activation
1 | COc1ccc(C(=O)NCC2(N(C)C)CCCCC2)cc1 | inactive: 1.28%
2 | O=C(NCC1(N2CCCCC2)CCCCC1)c1cccc(Br)c1 | inactive: -0.12%
3 | Cc1cc(C(=O)NCC2(N3CCCCC3)CCCCC2)ccc1[N+](=O)[O-] | inactive: -6.11%
4 | CCN1CCCC(OC(=O)C2(O)c3ccccc3C=Cc3ccccc32)C1 (centres undefined) | inactive: -10.6%
5 | O=C(NCC1(N2CCCCC2)CCCCC1)c1cc(F)c(F)cc1Cl | inactive: 2.82%
6 | C=CCN1CCN(CCOC(=O)C(O)(c2ccccc2)c2ccccc2)CC1 | inactive: -8.87%
7 | CN(C)C1CCCC1OC(=O)C(O)(c1ccccc1)c1ccccc1 (centres undefined) | inactive: 3%
8 | CN(C)c1ccc(C(=O)NCC2(N(C)C)CCCCC2)cc1 | inactive: -3.12%
9 | Cc1ccccc1C(=O)NCC1(N2CCCCC2)CCCCC1 | inactive: -2.5%
10 | Cc1ccc(C(=O)NCC2(N3CCCCC3)CCCCC2)cc1 | inactive: -5.27%
11 | COc1cc(SC)ccc1C(=O)NCC1(N(C)C)CCCCC1 | inactive: -9.54%
12 | CCN(CC)CC(C)C(C)OC(=O)C(O)(c1ccccc1)c1ccccc1 (centres undefined) | inactive: -4.7%
13 | CC(C)N1C(=O)CC2(CCN(CCOC(=O)C(O)(c3ccccc3)c3ccccc3)CC2)C1=O | inactive: -1.52%
14 | CN1[C@@H]2CC[C@H]1CC(OC(=O)C(O)(c1ccccc1)c1ccccc1)C2 (some centres undefined) | inactive: -2.14%
15 | O=C(NCC1(N2CCCCC2)CCCCC1)c1cc([N+](=O)[O-])ccc1Cl | inactive: -11.9%
16 | CC(C)Oc1ccc(C(=O)NCC2(N(C)C)CCCCC2)cc1 | inactive: -4.84%
17 | CN(C)c1cccc(C(=O)NCC2(N(C)C)CCCCC2)c1 | inactive: -2.31%
18 | COc1ccc(Br)c(C(=O)NCC2(N3CCCCC3)CCCCC2)c1 | inactive: -1.4%
19 | O=C(OC1CN2CCC1CC2)C(CO)(c1ccccc1)c1ccccc1 (centres undefined) | inactive: -12.4%
20 | O=C(NCC1(N2CCCCC2)CCCCC1)c1cccc(Cl)c1 | inactive: -1.8%
21 | COc1ccc(Cl)cc1C(=O)NCC1(N(C)C)CCCCC1 | inactive: -0.61%
22 | COc1cccc(C(=O)NCC2(N3CCCCC3)CCCCC2)c1 | inactive: -4.53%
23 | COc1cc(C(=O)NCC2(N(C)C)CCCCC2)c([N+](=O)[O-])cc1OC | inactive: -3.01%
24 | CN(C)C1(CNC(=O)c2ccc(Br)cc2)CCCCC1 | inactive: -9.69%
